The values below come from article PMC4661386, “Metal Ion-dependent Heavy Chain Transfer Activity of TSG-6 Mediates Assembly of the Cumulus-Oocyte Matrix*” (The Journal of Biological Chemistry, 2015).

Numbering of substitutions follows the chain as printed.

For assay [1], the target named is T1, Recombinant human heavy chain 1 (rHC1) D298A mutant (human, UniProt P19827 35-672, D298A).
T1 construct: source: mutation by QuikChange
T1 sequence (looked up): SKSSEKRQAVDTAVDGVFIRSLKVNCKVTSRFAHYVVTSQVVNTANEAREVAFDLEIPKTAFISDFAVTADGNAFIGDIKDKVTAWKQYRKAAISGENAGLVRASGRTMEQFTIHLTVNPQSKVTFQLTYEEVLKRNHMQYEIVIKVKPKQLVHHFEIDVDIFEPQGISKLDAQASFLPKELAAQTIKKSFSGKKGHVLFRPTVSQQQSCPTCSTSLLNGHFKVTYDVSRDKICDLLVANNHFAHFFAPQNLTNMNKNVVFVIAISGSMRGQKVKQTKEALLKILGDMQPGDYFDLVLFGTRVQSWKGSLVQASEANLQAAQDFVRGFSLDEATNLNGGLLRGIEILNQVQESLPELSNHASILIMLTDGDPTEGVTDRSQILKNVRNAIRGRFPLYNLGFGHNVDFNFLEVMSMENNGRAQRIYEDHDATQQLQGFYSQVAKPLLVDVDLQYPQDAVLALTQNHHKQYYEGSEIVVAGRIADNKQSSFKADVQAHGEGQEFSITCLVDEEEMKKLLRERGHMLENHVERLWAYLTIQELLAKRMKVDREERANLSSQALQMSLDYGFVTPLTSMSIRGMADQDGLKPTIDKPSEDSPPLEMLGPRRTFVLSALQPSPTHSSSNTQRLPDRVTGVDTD
The experiment in a line: SPR; rHC1 (WT or D298A) immobilised on a C1 chip; Link_TSG6 flowed over at a range of concentrations in HBS-T; multicycle kinetics, 1:1 Langmuir model. The settings on record: both partners purified. (In general: SPR reads the build-up and loss of mass on a sensor chip optically.)

Assay [2] has as its target T2, Recombinant human heavy chain 1 (rHC1) of inter-alpha-inhibitor, wild type (human, UniProt P19827 35-672).
T2 construct: also called WT rHC1
T2 sequence (looked up): T1 sequence (looked up) with A264D
The assay is described as above. As to conditions: both partners purified.

B1: Link_TSG6 (recombinant Link module from human TSG-6) (domain or fragment, UniProt P98066 36-133, looked up)
chain: GVYHREARSGKYKLTYAEAKAVCEFEGGHLATYKQLEAARKIGFHVCAAGWMAKGRVGYPIVKPGPNCGFGKTGIIDYGIRLNRSERWDAYCYNPHAK
notes: TSG-6, human, Link module, residues 36-133 of the preprotein; also called Link domain
For orientation: Kd means the equilibrium constant for the complex coming apart. As for B1, in assay [1], the binding result was “binds”. In assay [2], the Kd is about 2 nM.
